{"source": "patent US8920832B2", "about": "“Composition for nucleic acid transfection” (Hokkaido System Science Co., Ltd., priority 2006, dated 2014)", "tested_on": "HeLa cells", "assay": "DNA (pCMV-SPORT-βgal) transfection into HeLa cells: β-gal activity", "details": "enhancer added to liposome solution of Formulation Example 4; summary of Tables 13 and 14 (HeLa and HT1080)", "data": [{"substance": "poly L-lysine", "values": [{"measurement": "effect of enhancer on nucleic-acid-transfecting performance and cytotoxicity, in words", "value": "excellent effects"}]}]}
